Compounds with a hit are over-represented: about 1.6% of the library has one in this group of screens.
Vif inh – HIV Vif inhibition; HEK293T cells, Vif self-association by quenched fluorescence, imaging, 24 h; inhibition, % at 7.49 µM; hit rate 0.35% among 340,000; in the data active = inhibition above about 50%, passing the limit was not always enough
CAL PDZ FP-1 – inhibitors of human CAL PDZ peptide binding. inhibition, % at 24.9 µM. purified CAL PDZ, TMR-peptide fluorescence polarization, 1 h. Q9HD26. AID 602252. hit rate 0.92% among 300,000;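 active = mean inhibition of at least 30% with at least half of replicates also reaching 30%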
PglD DTNB – PglD (C. jejuni) enzyme inhibition; inhibition, % at 12.5 µM; purified PglD enzyme, DTNB colorimetric CoA detection; hit rate 0.098% among 360,000; in the data active = inhibition above about 16%, passing the limit was not always enough
UUG fidelity – modulators of start codon recognition fidelity in yeast; AID 602363; hit rate 0.13% among 350,000; activity score, % at 18.7 µM; S. cerevisiae UUG-firefly luciferase reporter, luminescence/redox ratio;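 active = replicate mean at a twofold rise or more, about +100% in these data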;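 note: firefly luciferase made from a UUG start codon reports start codon fidelity; reporter light over untreated wells divided by growth signal over untreated wells; some hits fall short of that in this replicate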
CAL PDZ FP-2 – human CAL PDZ-peptide interaction inhibition | hit rate 0.02% among 330,000 | Q9HD26 | inhibition, % at 20 µM | AID 504414 | purified CAL PDZ, TMR-peptide fluorescence polarization, 1 h;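 active = highest replicate inhibition of at least 40%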
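Read-out basis: mP drop reported as inhibition | Assay system: Tagged CAL PDZ protein CerCALP, purified | Benchmarks: Unlabelled peptide for full inhibition, DMSO wells as neutral | Schedule: 1 h incubation at room temperature before polarization reading | Buffer or medium: Sodium phosphate/NaCl buffer pH 7.4 with TCEP, IgG, Thesit | Doses: Single point, 20 µM | Measured by: Fluorescence polarization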
ARNT-TACC3 inh – disrupts binding between human ARNT and TACC3 | Q9Y6A5 | AlphaScreen His-ARNT PAS-B/GST-TACC3 binding, luminescence; TACC3 fragment carries E629A point mutation | inhibition, % at 9.99 µM | hit rate 0.66% among 390,000 | AID 623870;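 active = mean inhibition of replicates at least 50% and at least half of replicates each reaching 50%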
Numbers stand for hits; n = inactive; x = no result given.

SMILES	Vif inh	CAL PDZ FP-1	PglD DTNB	UUG fidelity	CAL PDZ FP-2	ARNT-TACC3 inh
CCn1c(SCC(=O)Nc2cc(NC(C)=O)ccc2OC)nnc1-c1ccccn1	n	n	n	n	n	50
O=C1CN(C(=O)COC(=O)C23CC4CC(CC(O)(C4)C2)C3)c2ccccc2N1	n	39	n	n	n	n
O=C1CN(C(=O)COc2ccccc2Cl)c2ccccc2N1	n	45	n	n	n	n
O=C1CN(C(=O)COc2ccc(F)cc2Br)c2ccccc2N1	n	67	n	n	n	n
O=S(=O)(N[C@H]1CC[C@H](CCn2cc(C3CC3)nn2)O[C@H]1CO)c1ccc(Cl)cc1	x	x	n	n	x	x
O=C(C1CC(=O)N(c2ccc3c(c2)OCCO3)C1)N1CCN(c2ccccc2)CC1 (stereo not drawn)	n	47	n	n	n	n
CN(Cc1cccc(F)c1)C(=O)C1CC(=O)N(c2ccc3c(c2)OCCO3)C1 (stereo not drawn)	n	40	n	n	n	n
CN(Cc1ccc(Cl)c(Cl)c1)C(=O)C1CC(=O)N(c2ccc3c(c2)OCCO3)C1 (stereo not drawn)	n	x	n	n	x	x
O=C(C1CC(=O)N(c2ccc3c(c2)OCCO3)C1)N1CCN(c2ccccc2O)CC1 (stereo not drawn)	n	n	n	n	n	n
CCC(=O)N[C@@H]1C=C[C@@H](CC(=O)OC)O[C@@H]1CO	x	x	n	n	x	n
CC(C)NC(=O)N[C@@H]1CC[C@@H](CCNC(=O)C2CCC2)O[C@@H]1CO	x	x	n	n	x	n
O=C(NCC[C@H]1CC[C@H](NS(=O)(=O)Cc2ccccc2)[C@@H](CO)O1)C1CCC1	x	x	n	x	x	n
Cc1cc(C(=O)Nc2cccc3c2O[C@H](CN(C)S(=O)(=O)c2ccc(F)cc2)[C@H](C)CN([C@H](C)CO)C3=O)n(C)n1	x	x	n	n	x	n
C=CCC(C#Cc1ccccc1)N(C)C (stereo not drawn)	n	87	n	n	n	n
C[C@@H]1CCCCO[C@@H](CN(C)C)[C@H](C)CN([C@H](C)CO)C(=O)c2cc(NS(=O)(=O)c3ccccc3)ccc2O1	x	x	n	n	x	x
CC(=NNC(=S)N1CC2CCC(CC2)C1)c1ccncn1	n	n	x	x	n	58
CNC(=O)COC(=O)c1cc(-c2ccco2)nc2ccccc12	n	47	n	n	n	n
O=C(COC(=O)c1cc(-c2ccco2)nc2ccccc12)NCc1ccccc1	n	n	n	n	x	n
C#CCN1C(=O)S/C(=C/C=C/c2ccc(N(C)C)cc2)C1=O	87	n	x	x	n	n
O=C(CN1C(=O)S/C(=C\C=C\c2ccccc2)C1=O)Nc1ccccc1C(=O)O	n	n	x	x	n	n
C[C@H](CO)N1C[C@H](C)[C@H](CN(C)C(=O)NC2CCCCC2)Oc2ccc(NC(=O)NC3CCCCC3)cc2C1=O	x	x	n	n	x	n
CC(C)C(c1nnnn1Cc1ccc2c(c1)OCO2)N1CCN(C)CC1 (stereo not drawn)	66	n	n	n	x	n
C[C@@H]1CN([C@@H](C)CO)C(=O)c2ccccc2-c2ccccc2CO[C@H]1CN(C)C(=O)C1CC1	x	x	n	x	x	n
C[C@H](CO)N1C[C@H](C)[C@@H](CN(C)Cc2ccc(C(F)(F)F)cc2)Oc2ccc(NC(=O)NC3CCCCC3)cc2CC1=O	x	x	n	n	x	n
C[C@H](NC(=O)C[C@H]1C[C@@H]2c3cc(NC(=O)C4CCOCC4)ccc3O[C@@H]2[C@H](CO)O1)c1ccccc1	x	x	n	x	x	n
SMILES	Vif inh	CAL PDZ FP-1	PglD DTNB	UUG fidelity	CAL PDZ FP-2	ARNT-TACC3 inh
CCOc1cccc(N2CCN(CCNC(=O)Nc3ccc(C)cc3)CC2)c1C	n	37	n	n	n	n
CCOc1ccc(NC(=O)NCCN2CCN(c3cccc(C)c3C)CC2)cc1	n	n	n	n	n	n
Cc1ccc2nc(COC(=O)c3ccc(Cl)nc3)cc(=O)n2c1	n	46	n	n	n	n
CCOc1ccc2[nH]c3c(NCC(C)C)ncnc3c2c1	n	81	x	x	n	n
CCOc1ccc2[nH]c3c(NCCOC)ncnc3c2c1	n	n	x	x	n	n
COc1ccc(C(N)=O)c(OCC(=O)Nc2cc(C)on2)c1	n	39	n	n	n	n
COc1ccc(OC)c(-c2cc(C(=O)Nc3cc(C)on3)no2)c1	63	n	x	x	n	n
COc1ccc(NC(=O)N(C)C[C@H]2Oc3c(NC(=O)C4CCOCC4)cccc3C(=O)N([C@@H](C)CO)C[C@H]2C)cc1	x	x	n	n	x	n
